Laboratory results published in PMC3585324, “InterAKTions with FKBPs - Mutational and Pharmacological Exploration” (PLoS ONE, 2013).

Target: T1, GST_Akt1^S473D (UniProt P31749 1-480, S473D)
T1 construct: Akt1 with the phosphomimetic S473D, called constitutively active; also called purified GST-tagged Akt1S473D; GST-tagged active Akt
T1 sequence (looked up): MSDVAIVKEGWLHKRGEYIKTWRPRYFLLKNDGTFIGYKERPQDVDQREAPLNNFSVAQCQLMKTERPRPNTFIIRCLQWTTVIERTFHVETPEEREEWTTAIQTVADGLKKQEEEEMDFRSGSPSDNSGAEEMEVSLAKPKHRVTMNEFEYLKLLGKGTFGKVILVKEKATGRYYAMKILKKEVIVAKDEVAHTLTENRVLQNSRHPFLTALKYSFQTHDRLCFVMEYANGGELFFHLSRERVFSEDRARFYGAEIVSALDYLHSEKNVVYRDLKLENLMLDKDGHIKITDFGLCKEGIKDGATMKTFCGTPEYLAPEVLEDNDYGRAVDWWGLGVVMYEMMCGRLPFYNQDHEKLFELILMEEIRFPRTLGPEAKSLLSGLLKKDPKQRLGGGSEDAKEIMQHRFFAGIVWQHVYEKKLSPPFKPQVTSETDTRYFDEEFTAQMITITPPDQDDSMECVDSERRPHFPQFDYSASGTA
Test: pull-down; GST pull-down: 15 µM FKBPs or Cyp40 with 22 µM GST_Akt1 S473D or GST_Akt1 S473D_ΔPH on glutathione resin, 3 h, 4 °C, NETN buffer (20 mM Tris-HCl pH 8.0, 100 mM NaCl, 1 mM EDTA, 0.5% igepal); AMP-PNP (5 mM), rapamycin (1 µM) or DMSO where indicated; Western blot
Conditions: both partners purified

B1: purified FKBP12.6 (natural protein, UniProt P68106 1-108, looked up)
chain: MGVEIETISPGDGRTFPKKGQTCVVHYTGMLQNGKKFDSSRDRNKPFKFRIGKQEVIKGFEEGAAQMSLGQRAKLTCTPDVAYGATGHPGVIPPNATLIFDVELLNLE
notes: FKBP12.6, His-tagged full length
binding result: binds
